## scFv variants of Ab-14 (heavy chain) against a SARS-CoV-2 spike peptide

Reference: Engelhart et al. 2022, doi:10.1038/s41597-022-01779-4. File: FLAb, binding data.

Antigen: PDVDLGDISGINAS, a 14-residue peptide of the SARS-CoV-2 spike HR2 region.

Each scFv is VH, a 15-residue (Gly4Ser)3 linker, VL, as in the parent Ab-14, and differs from it in the CDRs of the heavy chain only.
VH: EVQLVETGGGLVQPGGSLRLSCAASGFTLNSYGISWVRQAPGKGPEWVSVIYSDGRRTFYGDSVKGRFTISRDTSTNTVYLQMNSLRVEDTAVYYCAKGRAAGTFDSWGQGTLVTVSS
VL: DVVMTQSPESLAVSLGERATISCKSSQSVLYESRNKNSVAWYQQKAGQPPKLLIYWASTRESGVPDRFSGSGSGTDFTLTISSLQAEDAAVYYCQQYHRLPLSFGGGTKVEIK

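The starting antibody came from a phage panning campaign against this peptide. Library AAYL49 holds single substitutions and randomly drawn double and triple substitutions in the CDRs. The scFvs were displayed on barcoded MATa yeast, the peptide on MATalpha yeast. Pairs that bind mate more often; barcode pairs of the diploids are counted by sequencing. Scores were corrected for input abundance and mapped to Kd with protein pairs of known affinity run in the same pool. Each pool was mated in three replicate cultures.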

Substitutions are numbered in sequence along the VH above, starting at 1 (not Kabat). Every variant below is changed at D54 of the VH (sequential numbering). Values are apparent Kd, the geometric mean of the replicates that gave a signal; lower means stronger binding. A pair that was not seen in any replicate is written "nd"; this usually means weak binding, but a binder can also be missed. As a blank, each scFv also met three strains without target: over library AAYL49, 15% of these pairings were detected, typically at 11 µM and seldom below 680 nM.

With S31W D54E S63A the result was nd (0 of 3 replicates).
With D54Q R57Q A102D the result was 38 µM (3 of 3 replicates).
With D54Y D62W K65G the result was 11 µM (1 of 3 replicates).
With G26L D54T G61P the result was nd (0 of 3 replicates).
With G26N G33R D54S the result was 57 µM (1 of 3 replicates).
With G26L G33Y D54L the result was 19 µM (1 of 3 replicates).
With L29P D54R T58S the result was nd (0 of 3 replicates).
With D54K K65Y the result was nd (0 of 3 replicates).
With I34A D54A G103F the result was nd (0 of 3 replicates).
With V50E D54I T58P the result was 180 µM (2 of 3 replicates).
With S35T D54N A101R the result was 81 µM (2 of 3 replicates).
With D54Y R56M S107F the result was nd (0 of 3 replicates).
With G26H D54T R57Q the result was nd (0 of 3 replicates).
With Y52D D54L the result was nd (0 of 3 replicates).
With Y52L S53L D54K the result was 23 µM (3 of 3 replicates).
With N30E G33R D54M the result was nd (0 of 3 replicates).
With D54N S63A T104C the result was nd (0 of 3 replicates).
With S31G Y52V D54L the result was nd (0 of 3 replicates).
With D54S T58V G103T the result was 11 µM (3 of 3 replicates).
With V50Q D54N G103E the result was nd (0 of 3 replicates).
With D54F F59R S107C the result was 28 µM (2 of 3 replicates).
With D54K T104S the result was nd (0 of 3 replicates).
With G33M V50R D54N the result was nd (0 of 3 replicates).
With V50R D54A R56T the result was nd (0 of 3 replicates).
With N30S D54K T58W the result was nd (0 of 3 replicates).
With D54Y F59G D62A the result was 3.0 µM (1 of 3 replicates).
With T28S D54P F105S the result was nd (0 of 3 replicates).
With G26W T28R D54C the result was 22 µM (2 of 3 replicates).
With V50P D54M G55S the result was 14 µM (3 of 3 replicates).
With V50D D54W the result was nd (0 of 3 replicates).
With S35A D54T G103I the result was nd (0 of 3 replicates).
With D54E R57V T104F the result was nd (0 of 3 replicates).
With D54I S63C K65N the result was 34 µM (1 of 3 replicates).
With T28Y D54M G99I the result was 4.9 µM (1 of 3 replicates).
With Y32L D54P G61M the result was nd (0 of 3 replicates).
With D54Q A102S the result was nd (0 of 3 replicates).
With N30Q D54N D62H the result was 13 µM (1 of 3 replicates).
With D54S G61M R100Q the result was nd (0 of 3 replicates).
With D54M D62C G103H the result was nd (0 of 3 replicates).
With S53N D54E the result was nd (0 of 3 replicates).
With S31H D54E R100Y the result was 12 µM (1 of 3 replicates).
With I51V S53F D54S the result was 1.1 µM (1 of 3 replicates).
With D54W G103Y D106W the result was nd (0 of 3 replicates).
With D54Y G61V the result was nd (0 of 3 replicates).
With Y52H D54M V64Q the result was nd (0 of 3 replicates).
With I34A Y52S D54C the result was 42 µM (1 of 3 replicates).
With D54F F59D the result was nd (0 of 3 replicates).
With D54A Y60N the result was nd (0 of 3 replicates).
With D54Y R56N T58K the result was nd (0 of 3 replicates).
With G26E D54I R57E the result was nd (0 of 3 replicates).
With D54M S63C K65R the result was 31 µM (2 of 3 replicates).

A selection of 3 entries from above:

| changes | apparent Kd | detected |
|---|---|---|
| Y52H D54M V64Q | nd | 0/3 |
| S53N D54E | nd | 0/3 |
| D54E R57V T104F | nd | 0/3 |